In PubChem BioAssay AID2025 (NMMLSC, 2009):
The list shows a part of the results, in another mix than the full data. Calls of active or inactive are those of the source.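 How the source made its calls: active means percent response vs DMSO below 50%; inconclusive means fewer than 70 events counted for the yeast strain; inactive means the rest.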

experiment: compounds altering RPL19A-GFP fluorescence, TOR branch – cell-based, S. cerevisiae, multiplex flow cytometry, MLPCN, primary screen (AID 2025);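 further: median channel GFP fluorescence of the barcoded RPL19A-GFP strain; ratio of sample median GFP to plate DMSO average so 100% = DMSO; lower means less RPL19A-GFP as with rapamycin TOR inhibition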; settings: S. cerevisiae RPL19A-GFP strain, 3 h, at 10 µM, active compounds read low

Q: With `O=C(NCC1(N2CCCCC2)CCCCC1)c1ccc(Cl)s1` as the molecule, how does the percent response vs DMSO read?
A: inactive: 97.7%

Q: Which percent response vs DMSO does the source give for `N#CC1(Nc2ccccc2)CCN(Cc2ccccc2)CC1` here?
A: inactive: 102%

Q: With `O=C(OC1CN2CCC1CC2)C1c2ccccc2Oc2ccccc21` (stereo not given) as the molecule, how does the percent response vs DMSO read?
A: inactive: 102%

Q: With `COc1ccc(Cl)cc1C(=O)NCC1(N2CCOCC2)CCCCC1` as the molecule, how does the percent response vs DMSO read?
A: inactive: 96.2%

Q: For `CCOC(=O)N1CCC(Nc2ccc(OC)cc2)CC1`, which percent response vs DMSO is on record?
A: inactive: 108%

Q: For `O=C(NCC1(N2CCCCC2)CCCCC1)c1ccc(Cl)nc1`, which percent response vs DMSO is on record?
A: inactive: 93%

Q: For `Cc1cc(C)cc(N(C(=O)c2ccccc2)C2CCN(C(=O)OC(C)(C)C)CC2)c1`, which percent response vs DMSO is on record?
A: inactive: 103%

Q: For `O=C(NCC1(N2CCOCC2)CCCCC1)c1cc2ccccc2o1`, which percent response vs DMSO is on record?
A: inactive: 96.5%

Q: For `CSc1ccccc1C(=O)NCC1(N2CCCCC2)CCCCC1`, which percent response vs DMSO is on record?
A: inactive: 106%

Q: Which percent response vs DMSO does the source give for `COc1ccc(C(=O)NCC2(N3CCCCC3)CCCCC2)cc1` here?
A: inactive: 100%

Q: Which percent response vs DMSO does the source give for `CC(C)(C)OC(=O)N1CCC(N(C(=O)c2ccccc2)c2ccc(F)cc2)CC1` here?
A: inactive: 100%

Q: With `COc1ccc(C(=O)NCC2(N3CCCCC3)CCCCC2)c(OC)c1OC` as the molecule, how does the percent response vs DMSO read?
A: inactive: 103%

Q: Which percent response vs DMSO does the source give for `O=C(NCC1(N2CCCCC2)CCCCC1)c1ccc(=O)[nH]c1` here?
A: inactive: 97.6%

Q: With `O=C(NCC1(N2CCCCC2)CCCCC1)c1cccs1` as the molecule, how does the percent response vs DMSO read?
A: inactive: 99%

Q: Which percent response vs DMSO does the source give for `CCOC(=O)N1CCC(Nc2cccc(C)c2)CC1` here?
A: inactive: 107%

Q: Which percent response vs DMSO does the source give for `COc1cc(C(=O)NCC2(N(C)C)CCCCC2)ccc1OC(F)F` here?
A: inactive: 98.8%

Q: With `Cc1ccc(OCC(C)C)c(CN(CCCl)CCCl)c1` as the molecule, how does the percent response vs DMSO read?
A: inactive: 98.3%

Q: Which percent response vs DMSO does the source give for `O=C(NCC1(N2CCCCC2)CCCCC1)c1ccc(F)cc1` here?
A: inactive: 103%

Q: With `COc1ccc(NC2CCN(CCc3ccccc3)CC2)c(OC)c1` as the molecule, how does the percent response vs DMSO read?
A: inactive: 101%

Q: For `CCOC(=O)N1CCC(Nc2ccc(F)cc2)CC1`, which percent response vs DMSO is on record?
A: inactive: 102%

Q: With `CCOc1ccc(C)cc1CN(CCCl)CCCl` as the molecule, how does the percent response vs DMSO read?
A: inactive: 91%

Q: Which percent response vs DMSO does the source give for `COc1cc(C(=O)NCC2(N3CCCCC3)CCCCC2)ccc1OC(F)F` here?
A: inactive: 97.5%

Q: Which percent response vs DMSO does the source give for `O=C(NCC1(N2CCOCC2)CCCCC1)c1cc(=O)[nH]c2ccccc12` here?
A: inactive: 95.5%

Q: For `CN1CCN(CCOC(=O)C(O)(c2ccccc2)c2ccccc2)CC1`, which percent response vs DMSO is on record?
A: inactive: 105%

Q: Which percent response vs DMSO does the source give for `COc1ccc(NC2CCN(C(=O)OC(C)(C)C)CC2)cc1` here?
A: inactive: 103%

Q: Which percent response vs DMSO does the source give for `O=C(NCC1(N2CCCCC2)CCCCC1)c1cccc(C(F)(F)F)c1` here?
A: inactive: 104%

Q: For `CCN1CCC(Nc2ccc(Cl)cc2)CC1`, which percent response vs DMSO is on record?
A: inactive: 100%

Q: Which percent response vs DMSO does the source give for `N#CC1(Nc2ccccc2)CCN(CCc2ccccc2)CC1` here?
A: inactive: 102%

Q: Which percent response vs DMSO does the source give for `O=C(NCC1(N2CCCCC2)CCCCC1)c1cccc([N+](=O)[O-])c1` here?
A: inactive: 110%

Q: Which percent response vs DMSO does the source give for `O=C(NCC1(N2CCCCC2)CCCCC1)c1ccc(OC(F)F)cc1` here?
A: inactive: 101%

Q: For `CCCOc1ccc(C(=O)NCC2(N(C)C)CCCCC2)cc1OC`, which percent response vs DMSO is on record?
A: inactive: 92.9%

Q: Which percent response vs DMSO does the source give for `CN1CCC(Nc2cccc(F)c2)CC1` here?
A: inactive: 106%

Q: Which percent response vs DMSO does the source give for `O=C(NCC1(N2CCCCC2)CCCCC1)c1cncc(Br)c1` here?
A: inactive: 107%

Q: For `COc1cc(OC)c(C(=O)NCC2(N(C)C)CCCCC2)cc1OC`, which percent response vs DMSO is on record?
A: inactive: 101%

Q: With `O=C(NCC1(N2CCOCC2)CCCCC1)c1cc(F)c(F)cc1Cl` as the molecule, how does the percent response vs DMSO read?
A: inactive: 95.2%

Q: For `CC(C)c1ccc(NC2CCN(C(=O)OC(C)(C)C)CC2)cc1`, which percent response vs DMSO is on record?
A: inactive: 95.2%

Q: For `COc1ccc(CN(CCCl)CCCl)cc1Cl`, which percent response vs DMSO is on record?
A: inactive: 95.5%

Q: Which percent response vs DMSO does the source give for `CN(C)c1cccc(C(=O)NCC2(N3CCCCC3)CCCCC2)c1` here?
A: inactive: 103%

Q: For `CCc1cc(C(=O)NCC2(N3CCCCC3)CCCCC2)sc1C`, which percent response vs DMSO is on record?
A: inactive: 90.4%

Q: For `O=C(OC1CN2CCC1CC2)C1c2ccccc2C=Cc2ccccc21` (stereo not given), which percent response vs DMSO is on record?
A: inactive: 102%

Q: For `CCOC(=O)N1CCC(Nc2ccc(C)cc2)CC1`, which percent response vs DMSO is on record?
A: inactive: 91.3%

Q: For `COc1ccc(C(=O)NCC2(N3CCOCC3)CCCCC2)cc1OC`, which percent response vs DMSO is on record?
A: inactive: 93%

Q: Which percent response vs DMSO does the source give for `COc1cc(C(=O)NCC2(N3CCOCC3)CCCCC2)cc(OC)c1C` here?
A: inactive: 100%

Q: For `O=C(NCC1(N2CCOCC2)CCCCC1)c1cc(Br)ccc1Cl`, which percent response vs DMSO is on record?
A: inactive: 97.2%

Q: With `CN(C)C1(CNC(=O)c2cccc(C#N)c2)CCCCC1` as the molecule, how does the percent response vs DMSO read?
A: inactive: 105%

Q: For `c1ccc(CN2CCC(Nc3ccccc3)CC2)cc1`, which percent response vs DMSO is on record?
A: inactive: 98.8%

Q: With `CCCN1CCC(Nc2cc(OC)cc(OC)c2)CC1` as the molecule, how does the percent response vs DMSO read?
A: inactive: 103%

Q: With `N#Cc1ccc(C(=O)NCC2(N3CCCCC3)CCCCC2)cc1` as the molecule, how does the percent response vs DMSO read?
A: inactive: 104%

Q: For `CC(C)(C)OC(=O)N1CCC(N(C(=O)c2ccccc2)c2ccc(Cl)cc2)CC1`, which percent response vs DMSO is on record?
A: inactive: 106%

Q: For `O=C(NCC1(N2CCCCC2)CCCCC1)c1ccco1`, which percent response vs DMSO is on record?
A: inactive: 99.3%

Q: Which percent response vs DMSO does the source give for `CN(C)c1ccc(C(=O)NCC2(N3CCCCC3)CCCCC2)cc1` here?
A: inactive: 97%

Q: Which percent response vs DMSO does the source give for `CCN1CCC(Nc2cccc(F)c2)CC1` here?
A: inactive: 97.2%

Q: For `Cc1ccc(C(=O)NCC2(N3CCCCC3)CCCCC2)o1`, which percent response vs DMSO is on record?
A: inactive: 97%

Q: Which percent response vs DMSO does the source give for `Fc1ccccc1NC1CCN(Cc2ccccc2)CC1` here?
A: inactive: 98.4%

Q: For `COc1cc(OC)cc(C(=O)NCC2(N3CCCCC3)CCCCC2)c1`, which percent response vs DMSO is on record?
A: inactive: 101%

Q: With `CN1CCC(Nc2ccc(Cl)cc2)CC1` as the molecule, how does the percent response vs DMSO read?
A: inactive: 101%

Q: Which percent response vs DMSO does the source give for `CCCOc1ccc(C)cc1CN(CCCl)CCCl` here?
A: inactive: 93.3%

Q: Which percent response vs DMSO does the source give for `COc1cc(OC)cc(C(=O)NCC2(N3CCOCC3)CCCCC2)c1` here?
A: inactive: 100%

Q: With `COc1cccc(C(=O)N(c2cc(C)cc(C)c2)C2CCN(C(=O)OC(C)(C)C)CC2)c1` as the molecule, how does the percent response vs DMSO read?
A: inactive: 102%

Q: Which percent response vs DMSO does the source give for `CCC(CO)(C(=O)OC1CN2CCC1CC2)c1ccccc1` (stereo not given) here?
A: inactive: 101%

Q: For `CC(C)(C)OC(=O)N1CCC(Nc2ccccc2)CC1`, which percent response vs DMSO is on record?
A: inactive: 98.2%

Q: Which percent response vs DMSO does the source give for `O=C(O)C1(Nc2ccccc2)CCN(Cc2ccccc2)CC1` here?
A: inactive: 95.6%

Q: For `CCCOc1ccc(C(=O)NCC2(N(C)C)CCCCC2)cc1`, which percent response vs DMSO is on record?
A: inactive: 106%

Q: Which percent response vs DMSO does the source give for `CCOc1ncccc1C(=O)NCC1(N2CCOCC2)CCCCC1` here?
A: inactive: 100%

Q: Which percent response vs DMSO does the source give for `CN1CCC(Nc2ccc(F)c(Cl)c2)CC1` here?
A: inactive: 108%
